Molecular target: Rabbit skeletal actin, polymerised (F-actin) (rabbit), P68135
Assay: co-sedimentation
Details: remark: other sources report otherwise

B1: Drebrin construct 1-300, Q9QXS6 1-300 (domain or fragment)
chain: MAGVSFSGHRLELLAAYEEVIREESAADWALYTYEDGSDDLKLAASGEGGLQELSGHFENQKVMYGFCSVKDSQAALPKYVLINWVGEDVPDARKCACASHVAKVAEFFQGVDVIVNASSVEDIDAGAIGQRLSNGLARLSSPVLHRLRLREDENAEPVGTTYQKTDAAVEMKRINREQFWEQAKKEEELRKEEERKKALDARLRFEQERMEQERQEQEERERRYREREQQIEEHRRKQQSLEAEEAKRRLKEQSIFGDQRDEEEESQMKKSESEVEEAAAIIAQRPDNPREFFRQQERV
Kd: 170 nM

Source: PMC2866048
